{
  "source": "patent US20240287147A1",
  "about": "“PD-L1 BINDING PEPTIDES AND PEPTIDE COMPLEXES AND METHODS OF USE THEREOF” (Fred Hutchinson Cancer Center, priority 2020, published 2024)",
  "key": {"cynomolgus monkey PD-L1": {"tested_on": "cynomolgus monkey PD-L1", "conditions": "cells surface-expressing binder"}, "PD-L1 [1]": {"biological_target": "T1, PD-L1 (Homo sapiens, UniProt Q9NZQ7)", "conditions": "transiently transfected SDGF-cloned CDP"}, "PD-L1 [2]": {"biological_target": "T1, PD-L1", "conditions": "relative to SEQ ID NO: 8 (All 6)"}},
  "data": [
    {"compound": "CC[C@H](C)[C@@H]1NC(=O)[C@H]([C@@H](C)O)NC(=O)[C@H](Cc2ccc(O)cc2)NC(=O)[C@H](CO)NC(=O)[C@H](CCCCN)NC(=O)[C@H](CC(N)=O)NC(=O)[C@H](CCCNC(=N)N)NC(=O)[C@H](CCC(=O)O)NC(=O)[C@H](C)NC(=O)[C@@H]2CSSC[C@H](NC(=O)[C@H](Cc3c[nH]cn3)NC(=O)[C@H](C)NC(=O)[C@H](CCCNC(=N)N)NC(=O)CNC1=O)C(=O)N[C@@H](CO)C(=O)NCC(=O)N[C@@H](CCC(N)=O)C(=O)N[C@@H](CCCCN)C(=O)N[C@@H](Cc1ccccc1)C(=O)N[C@@H](CC(=O)O)C(=O)N[C@@H](C(C)C)C(=O)N[C@@H](Cc1ccccc1)C(=O)N[C@@H](CCCCN)C(=O)N[C@H]1CSSC[C@H](NC(=O)[C@H](Cc3c[nH]cn3)NC(=O)[C@H](C(C)C)NC(=O)[C@H](CCCCN)NC(=O)[C@@H](NC(=O)[C@H](CC(=O)O)NC(=O)[C@H](CCC(=O)O)NC(=O)[C@@H](N)CCC(=O)O)CSSC[C@@H](C(=O)N[C@@H](C)C(=O)N[C@@H](C)C(=O)N3CCC[C@H]3C(=O)O)NC(=O)[C@H](Cc3c[nH]cn3)NC(=O)[C@H](CC(=O)O)NC(=O)[C@H](CC(C)C)NC1=O)C(=O)N[C@@H](C(C)C)C(=O)N[C@@H](CCCCN)C(=O)N[C@@H](CCC(=O)O)C(=O)N[C@@H](Cc1c[nH]c3ccccc13)C(=O)N[C@@H](CCSC)C(=O)N[C@@H](C)C(=O)NCC(=O)N[C@@H](CCCCN)C(=O)N[C@@H](C)C(=O)N2", "note": "[SEQ ID NO: 3]", "values": [
      {"measurement": "binding to cynomolgus monkey PD-L1", "setting": "cynomolgus monkey PD-L1", "result": "binds human and cynomolgus monkey PD-L1"}
    ]},
    {"compound": "EERCMPQCVKSLYEYEKCLKRVENDDTGHKHCTGHYFDYWSCIDKCVAS [SEQ ID NO: 59]", "values": [
      {"measurement": "binding to PD-L1 (co-stain fluorescence)", "setting": "PD-L1 [1]", "result": "bind to PD-L1"}
    ]},
    {"compound": "ARTCESQSHRFKGPCVSDTMCASVCRTERFSGGHCRGFRRRCLCSKHC [SEQ ID NO: 58]", "values": [
      {"measurement": "binding to PD-L1 (co-stain fluorescence)", "setting": "PD-L1 [1]", "result": "bind to PD-L1"}
    ]},
    {"compound": "EEDCKVHCVKWWMAGKACAERNKSYTIGRAHCSGQYFDVFKCLDHCAAP [SEQ ID NO: 13]", "values": [
      {"measurement": "PD-L1 staining / affinity of combination and reversion variants", "setting": "PD-L1 [2]", "result": "increased affinity for PD-L1"}
    ]},
    {"compound": "EEDCKVHCVKWWMAYKACAERNKSYTIGRAHCSGQKFDVFKCLDHCAAP [SEQ ID NO: 11]", "values": [
      {"measurement": "PD-L1 staining / affinity of combination and reversion variants", "setting": "PD-L1 [2]", "result": "increased affinity for PD-L1"}
    ]},
    {"compound": "EESCKPQCVKAWLEYQACAERVEKDESGEAHCTGQYFDLWGCVDKCVAP [SEQ ID NO: 57]", "values": [
      {"measurement": "binding to PD-L1 (co-stain fluorescence)", "setting": "PD-L1 [1]", "result": "bind to PD-L1"}
    ]}
  ]
}
